# Reference: publication PMC3306180 (Journal of Medicinal Chemistry, 2012)
# Experiments:
# [1] = system: CRL-8155 (lymphocytic) cells; conditions: concentrations up to 10 μM
# HL-60 (neutrophil) cells = conditions: concentrations up to 10 μM
smiles,measurement,setting,value
CCOc1ccc2cc(-c3nn(C(C)C)c4ncnc(N)c34)ccc2c1.Cl [Compound 15a],"inhibition of cell growth, CRL-8155",[1],no inhibition of cell growth
same,"inhibition of cell growth, HL-60",HL-60 (neutrophil) cells,no inhibition of cell growth
